# Data: ChEMBL document CHEMBL4715910, “Insights into non-peptide small-molecule inhibitors of the PD-1/PD-L1 interaction: Development and perspective” (Bioorg Med Chem, 2021)
# Chains of the proteins cited; added tags and fusions are not shown.
# UniProt Q9NZQ7, whole entry: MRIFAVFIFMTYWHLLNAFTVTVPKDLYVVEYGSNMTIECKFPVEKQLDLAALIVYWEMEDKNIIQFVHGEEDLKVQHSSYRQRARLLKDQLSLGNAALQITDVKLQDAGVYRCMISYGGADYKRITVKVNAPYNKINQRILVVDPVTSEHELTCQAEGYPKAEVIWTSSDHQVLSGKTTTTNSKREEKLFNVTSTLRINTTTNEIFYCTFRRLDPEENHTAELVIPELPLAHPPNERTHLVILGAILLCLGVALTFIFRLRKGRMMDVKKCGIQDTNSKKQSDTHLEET
# Target: Programmed cell death 1 ligand 1 (Homo sapiens) (UniProt Q9NZQ7)
smiles,measurement,value
Cc1c(COc2ccc(CN3CCCCC3C(=O)O)cc2Br)cccc1-c1ccccc1 (stereo unspecified),Tm,44.8 °C
